What was measured:
[1] = target: T1, C-X-C chemokine receptor type 3 (Homo sapiens, UniProt P49682); test: Displacement of [125I]-CXCL11 from human CXCR3 expressed in HEK293 cells; format: cell-based
T1 sequence (P49682 whole entry): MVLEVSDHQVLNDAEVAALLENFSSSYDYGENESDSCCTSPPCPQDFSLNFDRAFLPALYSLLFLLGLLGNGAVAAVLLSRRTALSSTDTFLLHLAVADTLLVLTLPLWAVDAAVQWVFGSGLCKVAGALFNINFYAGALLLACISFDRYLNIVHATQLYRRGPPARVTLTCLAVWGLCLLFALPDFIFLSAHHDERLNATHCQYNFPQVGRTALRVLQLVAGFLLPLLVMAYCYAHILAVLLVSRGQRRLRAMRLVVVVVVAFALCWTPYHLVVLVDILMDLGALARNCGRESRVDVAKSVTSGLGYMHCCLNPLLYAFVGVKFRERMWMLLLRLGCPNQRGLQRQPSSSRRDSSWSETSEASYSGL
Outline: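 Membranes of HEK293 cells stably expressing hCXCR3, radioligand ¹²⁵I-CXCL11; displacement by test compound measured to derive pKi; n = 2–4, each in duplicate.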

[2] = target: T1, C-X-C chemokine receptor type 3; test: Displacement of [125I]-CXCL10 from human CXCR3 expressed in HEK293 cells; format: cell-based
Outline: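 Membranes from HEK293 cells stably expressing hCXCR3; competition against ¹²⁵I-CXCL10 binding; non-specific binding defined with 10 µM CXCR3 antagonist reference; full concentration-displacement curves give pKi; n = 2–4, each in duplicate.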

With CCOc1ccc(-n2c([C@@H](C)N(Cc3cccnc3)C(=O)Cc3ccc(OC(F)(F)F)cc3)nc3ncccc3c2=O)cc1 as the compound, how does the Ki [1] read?
Its Ki is 158 nM.

And the Ki [2]?
The Ki was 39.8 nM.

Reference: ChEMBL document CHEMBL2203150, “CXCR3 antagonists: quaternary ammonium salts equipped with biphenyl- and polycycloaliphatic-anchors” (Bioorg Med Chem, 2011)
